Like-named read-outs stand apart in the source and are kept apart here.
How the values were obtained:
MDA-MB-468 control cells = test: MT cell viability assay (CellTiter-Glo 2.0), control cells; type: cell-based, Human; conditions: control MDA-MB-468 cells, read-out: half maximal inhibitory concentration or IC50 (cell viability)
Description: (§1) FIG. 10 depicts graphs representing cell viability at 48h and 72 h as a function of the drug concentration M, for MDA MB 468 control cells (w) or stably overexpressing Kindlin-1 (k1).
(§2) 15 000 cells were seeded in a 96-well plate and treated with Cetuximab (Erbitux 5 mg/ml, Merck Europe). After 48 and 72 hours cell viability was assessed using the CellTiter-Glo 2.0 Assay according to the instructions of the manufacturer (Promega, Madison, WI, USA). Luminiscence was recorded on a 96-well microplate reader (Promega Glomax Discover, Promega).
(§3) The possibility that Kindlin-1 ectopic expression could reverse the sensitivity to the EGFR inhibitor Cetuximab was tested. The inventors hypothesized that ectopic expression of Kindlin-1 could bypass the action of Cetuximab, maintaining the EGFR pathway activated and therefore rendering sensitive cells more resistant. To confirm our hypothesis, MDA-MB-468 cells stably overexpressing Kindlin-1 was generated (named k1). Control- and Kindlin-1-expressing MDA-MB-468 cells were treated with increasing concentrations of Cetuximab (1-20 µM) and a MT cell viability assay was performed after 48 h and 72 h of treatment.

[1] = system: MDA-MB-468 cells stably overexpressing Kindlin-1 (k1); test: MT cell viability assay (CellTiter-Glo 2.0), Kindlin-1 overexpressing cells; type: cell-based, Human; conditions: Kindlin-1-expressing MDA-MB-468 cells (k1), read-out: half maximal inhibitory concentration or IC50 (cell viability)
Description: as §1, §2, §3

Substance Cetuximab has an IC50 (MDA-MB-468 control cells; 48 h of treatment) of 7.3 µM, an IC50 (MDA-MB-468 control cells; 72 h of treatment) of 6.1 µM and an IC50 ([1]; 48 h of treatment) of 14.8 µM. The IC50 ([1]; 72 h of treatment) was 11.3 µM.
